# Tested on: diabetic C57 mice
# Assay: Allogeneic islet transplantation in the liver of diabetic mice
# Conditions: 24 h and 48 h after transplant; both in the presence and in the absence of Rapamycin
compound,measurement,value
"CC(C)Cc1ccc([C@@H](C)C(=O)NS(C)(=O)=O)cc1 [Reparixin, R(−)-2-[(4-isobutylphenyl)propionyl]-methanesulfonamide]",circulating levels of ALT,not affected

# Reference: patent US20120202884A1, “INHIBITORS OF CXCR1/2 AS ADJUVANTS IN THE TRANSPLANT OF PANCREATIC ISLETS” (DOMPE' S.P.A., priority 2009, published 2012)
